“And” between values parts separate entries of the source, which are not always exact repeats. Equal entries are not always repeated.
Test system: HPV-16 E7 peptide (aa43-57)
Details: individual animals
[1] = s.c. vaccination days 1, 21, 42, 0.086 mg R-DOTAP

Structure (SMILES): CCCCCCCC/C=C\CCCCCCCC(=O)OCC(C[N+](C)(C)C)OC(=O)CCCCCCC/C=C\CCCCCCCC (stereo not shown) [R-DOTAP, 1,2-dioleoyl-3-trimethylammonium propane]
- Pretest IgG (E743-57) (before vaccination): <2 Log Titers
- Pretest IgM (E743-57) (before vaccination): <2 Log Titers
- Day 57 IgG (E743-57) [1]: <2 Log Titers
- Day 57 IgM (E743-57) [1]: <2 Log Titers (6×) and 2 Log Titers (2×)

Reference: patent US11904015B2, “Vaccine compositions and methods of use” (PDS BIOTECHNOLOGY CORPORATION, priority 2012, dated 2024)
